# Measured affinities in a library of Ab-14 heavy chain variants

The target is the same throughout: PDVDLGDISGINAS, from the HR2 region of SARS-CoV-2 spike.

Each scFv is VH, a (GGGGS)3 linker, VL, as in the parent Ab-14, and differs from it in the CDRs of the heavy chain only.
VH: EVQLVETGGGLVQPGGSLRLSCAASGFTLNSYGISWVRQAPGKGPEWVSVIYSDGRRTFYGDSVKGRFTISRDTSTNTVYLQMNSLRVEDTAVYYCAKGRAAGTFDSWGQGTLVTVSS
VL: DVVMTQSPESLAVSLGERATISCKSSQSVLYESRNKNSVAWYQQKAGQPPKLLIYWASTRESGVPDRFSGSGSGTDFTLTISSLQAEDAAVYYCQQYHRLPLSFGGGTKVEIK

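Phage display of a naive human antibody library on the peptide gave the parent. The library (AAYL49) carries one to three amino acid substitutions per variant, with no insertions or deletions. In AlphaSeq, yeast of one mating type display the scFv and yeast of the other type display the target. The frequency of each diploid, read from paired DNA barcodes, reflects how well the two displayed proteins bind. The ratio of observed to expected reads was calibrated, replicate by replicate, on BCL2-family standards whose Kd was known from biolayer interferometry. The assay was run in three technical replicates.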

Each variant is given by its three heavy chain CDRs, as the data file delimits them; those of the parent are GFTLNSYGIS, VIYSDGRRTFYGDSVK, GRAAGTFDS. All variants listed here change D62 of the VH, counted from its first residue. Numbers give log10(Kd / nM), so 0 is 1 nM and 3 is 1 µM. Smaller is tighter. The mean shown is taken over the replicates in which the pair was detected. An entry "ND" has no value in the source: the pair was not observed among the diploids in that replicate. This suggests poor binding but is not conclusive. Background: pairings of library AAYL49 with three empty control strains gave a value in 15% of cases (median 4.06, 5th percentile 2.83). Values in that range, when seen in few replicates, are hard to tell from nonspecific mating.

CDR-H1,CDR-H2,CDR-H3,log10 Kd (nM) by replicate,"log10 Kd (nM), mean"
GFGLNSYGIS,VIYSDGRRTFYGYSVK,GRAANTFDS,2.39 / 2.37 / 2.61,2.45
GFTLNSYGIS,VIYSDGRRTFYGSSVK,GRARGTFDS,ND / ND / ND,ND
GFTLNSYGQS,VIYSDGRRTFYGCSVK,GRAAPTFDS,ND / ND / 4.25,4.25
GFTLNSYGIS,VGYSDHRRTFYGHSVK,GRAAGTFDS,4.86 / 4.36 / 3.84,4.35
GFTLNSYGIS,YIYSDGRRSFYGYSVK,GRAAGTFDS,ND / ND / ND,ND
GFTLNSYGIS,VIYNDGRRQFYGLSVK,GRAAGTFDS,ND / ND / 5.20,5.20
GFTLNSYGIS,VIYSDGRRGFYGVSVK,GRAAGTFDS,5.09 / ND / ND,5.09
GFTLNHYGIS,VIYSDGRRTFYGQSVK,GRAAGTFWS,ND / ND / ND,ND
GFTLNSYGIS,VIYSDGRRTFYGVSVE,GRAAETFDS,ND / ND / ND,ND
GFTLNSYGIS,VIYSDGRRTFYFWSVK,GRAAGTFNS,ND / ND / ND,ND
GFTLNSYGIS,VIYSDGRATFYGSSVK,GRAAGTFDS,ND / ND / ND,ND
GFTLNSYGFS,VIYSDGRRTFYGMSVP,GRAAGTFDS,ND / ND / ND,ND
GFTLNSYGIS,VIMSDGRRTFYGMSVK,GRAAGTFDS,ND / ND / ND,ND
GFTLNSYGIS,VIHSDGRRTFYGYSVK,GRAAGTFDS,ND / ND / ND,ND
GFTLNDYGIS,VIYSDGRRTMYGPSVK,GRAAGTFDS,0.36 / 0.65 / 0.52,0.51
GFDLNSYGIS,VIYSDGRRTFYGQSVK,GRAAGTFDV,-0.02 / 0.34 / 0.09,0.14
GFTLNSYGIS,VIYSDGRRTDYGLSMK,GRAAGTFDS,ND / ND / ND,ND
GFTLNAYGIS,VIYSDGRRTFYGPSVK,GRAAGTFDL,2.43 / 2.38 / 2.50,2.44
GFTFNSYGIS,VIYSDARRTFYGASVK,GRAAGTFDS,ND / ND / 4.76,4.76
GFTLNSYGIS,VIYSDGRRTQYGMSVK,GRAFGTFDS,ND / 4.44 / 5.44,4.94
GFTLNSYWIS,VIYSDGRRTFYGWSVK,GRAAGTFDS,ND / ND / ND,ND
GFTLNSYGIS,VIYSDGRRTFYGRSVK,GRAEGSFDS,ND / ND / ND,ND
GWTLNSYGIS,VIYSDGRRTVYGGSVK,GRAAGTFDS,ND / ND / ND,ND
GFTLNSYGIS,VIYSDGRRTWYGKSRK,GRAAGTFDS,6.06 / 4.18 / 4.64,4.96
TFTLNSYGIS,VIYSDGRRTFYGQSVK,GRAAGTFDS,ND / 1.37 / ND,1.37
CFTLNSYGIS,VIYSDGRRTFYGSSVK,GDAAGTFDS,3.07 / ND / ND,3.07
GFTLNSYGIS,VIYSDGRRTWYGTSVK,GQAAGTFDS,2.94 / 3.13 / 2.92,3.00
GFTLNSYGII,VIYSDGRRTFAGASVK,GRAAGTFDS,5.80 / 5.39 / ND,5.60
GFTLNSYGIS,VIYSDGRDTFYGKSVK,GRAAGTFDS,ND / ND / ND,ND
GFTLNSYGIS,VIYSDGRRGFYGVSVK,GRAAGTFIS,ND / ND / ND,ND
GFTLNSYGIS,VIYSDGRRTFYGLSVW,GRAAGTRDS,ND / ND / ND,ND
GTPLNSYGIS,VIYSDGRRTFYGPSVK,GRAAGTFDS,2.54 / 2.18 / 2.90,2.54
GFTLNSYGIS,VIYSDGRRTFYGNSVK,GRAAGTFDS,0.80 / 1.14 / 1.23,1.06
GFTLNSYGIP,VIYSDGRRTFYMLSVK,GRAAGTFDS,5.76 / ND / ND,5.76
GFTLNSYGIS,VIYSDGRRTFSGGSVK,GREAGTFDS,2.84 / 2.70 / 2.65,2.73
SATLNSYGIS,VIYSDGRRTFYGKSVK,GRAAGTFDS,3.14 / 3.93 / 2.91,3.33
GFTLNSYGIS,VIYSDGHRTFYGLSVK,GRAAMTFDS,ND / 2.99 / ND,2.99
GFTLNSYGPS,VIYSDGRRTFYGESVK,GRAVGTFDS,ND / ND / ND,ND
GFTLNSYGIS,VIYSDGRRTFYGVSVK,GRAAGDFDS,ND / ND / ND,ND
GFFLNSYGIS,VIYSDGRRTFYGVSVK,GRAAGTFDC,ND / ND / ND,ND
GFTLNSYGIS,VIYSDGRRTRYGTSVK,GRAAGTTDS,ND / ND / ND,ND
GFTLVSYGIS,VIYSDGRRTFYGCSYK,GRAAGTFDS,ND / ND / ND,ND
GFTLNSYGIS,VIYSDGRRTFYGLSVK,GRAAGCFDS,ND / ND / 5.54,5.54
GFTLNSYWIV,VIYSDGRRTFYGCSVK,GRAAGTFDS,ND / ND / ND,ND
GFTLNNYPIS,VIYSDGRRTFYGYSVK,GRAAGTFDS,ND / ND / ND,ND
GFTLNSYGIS,VIYSDGWRTFYGYSVK,GRQAGTFDS,2.37 / 1.99 / 2.19,2.18
GFTLNSYGIS,VIYSDGRRTFYGGYVK,GRAKGTFDS,ND / ND / ND,ND
GFYLNSYGIS,PIYSDGRRTFYGGSVK,GRAAGTFDS,4.32 / 3.39 / ND,3.86
GFTPNSYGIS,VIYSDGRRTFYGCSVK,GRAAGTFDS,ND / ND / ND,ND
GFTLQSYGIS,VIYSDGRRTFYGMSVK,GRAAGTFDS,3.79 / 2.56 / 4.12,3.49

Values reported by Engelhart et al. 2022, doi:10.1038/s41597-022-01779-4 (FLAb copy).